Experimental findings from patent US8569379B2, “Use of rasagiline for the treatment of olfactory dysfunction” (Teva Pharmaceutical Industries Ltd., priority 2010, dated 2013) are described below.

The assay has as its system alpha-synuclein over-expressing (mutants) mice (Thy1-aSyn). To be noted: α-syn mutants receiving rasagiline; group mean, n = 19. From the text:
Transgenic mice overexpressing alpha-synuclein under the Thy1 promoter (Thy1-aSyn) have high levels of alpha-synuclein expression throughout the brain but no loss of nigrostriatal dopamine neurons up to 8 months. […] Overexpression of alpha-synuclein is sufficient to cause olfactory deficits in mice similar to that observed in patients with PD (2).
The time periods that mice spent sniffing lemon and lime were compared. The testing parameters were percentage of time of sniffing lemon out of total time of sniffing and percentage of time of sniffing lime out of total time of sniffing.

In the case of `C#CCN[C@@H]1CCc2ccccc21` [Rasagiline, R(+)-N-propargyl-1-aminoindan], the “% Time sniffing Lemon” value worked out at 47.4%.
